The values below are quoted from earlier work in PMC10301001, “Radiochemical and Biological Evaluation of 3p-C-NETA-ePSMA-16, a Promising PSMA-Targeting Agent for Radiotheranostics” (Pharmaceuticals, 2023).

In this data set the test system is tumor. To be noted: in vivo, cited from earlier work.

Like-named read-outs stand apart in the source and are kept apart here.

In the case of “^205/6Bi-3p-C-NETA-trastuzumab: 3p-C-NETA-NCS conjugated with the antibody trastuzumab, labeled with 205/206Bi”, the blood uptake (2 h) is 21.89 ± 5.9 % ID/g. Under “24 h”, the Tumor uptake is on record as 24.10 ± 4.8 % ID/g and the blood uptake was 9.92 ± 2.2 % ID/g.
